Measured values reported in paper PMC5933747 (PLoS ONE, 2018).

Chains of the proteins cited; added tags and fusions are not shown.
UniProt Q15858, whole entry: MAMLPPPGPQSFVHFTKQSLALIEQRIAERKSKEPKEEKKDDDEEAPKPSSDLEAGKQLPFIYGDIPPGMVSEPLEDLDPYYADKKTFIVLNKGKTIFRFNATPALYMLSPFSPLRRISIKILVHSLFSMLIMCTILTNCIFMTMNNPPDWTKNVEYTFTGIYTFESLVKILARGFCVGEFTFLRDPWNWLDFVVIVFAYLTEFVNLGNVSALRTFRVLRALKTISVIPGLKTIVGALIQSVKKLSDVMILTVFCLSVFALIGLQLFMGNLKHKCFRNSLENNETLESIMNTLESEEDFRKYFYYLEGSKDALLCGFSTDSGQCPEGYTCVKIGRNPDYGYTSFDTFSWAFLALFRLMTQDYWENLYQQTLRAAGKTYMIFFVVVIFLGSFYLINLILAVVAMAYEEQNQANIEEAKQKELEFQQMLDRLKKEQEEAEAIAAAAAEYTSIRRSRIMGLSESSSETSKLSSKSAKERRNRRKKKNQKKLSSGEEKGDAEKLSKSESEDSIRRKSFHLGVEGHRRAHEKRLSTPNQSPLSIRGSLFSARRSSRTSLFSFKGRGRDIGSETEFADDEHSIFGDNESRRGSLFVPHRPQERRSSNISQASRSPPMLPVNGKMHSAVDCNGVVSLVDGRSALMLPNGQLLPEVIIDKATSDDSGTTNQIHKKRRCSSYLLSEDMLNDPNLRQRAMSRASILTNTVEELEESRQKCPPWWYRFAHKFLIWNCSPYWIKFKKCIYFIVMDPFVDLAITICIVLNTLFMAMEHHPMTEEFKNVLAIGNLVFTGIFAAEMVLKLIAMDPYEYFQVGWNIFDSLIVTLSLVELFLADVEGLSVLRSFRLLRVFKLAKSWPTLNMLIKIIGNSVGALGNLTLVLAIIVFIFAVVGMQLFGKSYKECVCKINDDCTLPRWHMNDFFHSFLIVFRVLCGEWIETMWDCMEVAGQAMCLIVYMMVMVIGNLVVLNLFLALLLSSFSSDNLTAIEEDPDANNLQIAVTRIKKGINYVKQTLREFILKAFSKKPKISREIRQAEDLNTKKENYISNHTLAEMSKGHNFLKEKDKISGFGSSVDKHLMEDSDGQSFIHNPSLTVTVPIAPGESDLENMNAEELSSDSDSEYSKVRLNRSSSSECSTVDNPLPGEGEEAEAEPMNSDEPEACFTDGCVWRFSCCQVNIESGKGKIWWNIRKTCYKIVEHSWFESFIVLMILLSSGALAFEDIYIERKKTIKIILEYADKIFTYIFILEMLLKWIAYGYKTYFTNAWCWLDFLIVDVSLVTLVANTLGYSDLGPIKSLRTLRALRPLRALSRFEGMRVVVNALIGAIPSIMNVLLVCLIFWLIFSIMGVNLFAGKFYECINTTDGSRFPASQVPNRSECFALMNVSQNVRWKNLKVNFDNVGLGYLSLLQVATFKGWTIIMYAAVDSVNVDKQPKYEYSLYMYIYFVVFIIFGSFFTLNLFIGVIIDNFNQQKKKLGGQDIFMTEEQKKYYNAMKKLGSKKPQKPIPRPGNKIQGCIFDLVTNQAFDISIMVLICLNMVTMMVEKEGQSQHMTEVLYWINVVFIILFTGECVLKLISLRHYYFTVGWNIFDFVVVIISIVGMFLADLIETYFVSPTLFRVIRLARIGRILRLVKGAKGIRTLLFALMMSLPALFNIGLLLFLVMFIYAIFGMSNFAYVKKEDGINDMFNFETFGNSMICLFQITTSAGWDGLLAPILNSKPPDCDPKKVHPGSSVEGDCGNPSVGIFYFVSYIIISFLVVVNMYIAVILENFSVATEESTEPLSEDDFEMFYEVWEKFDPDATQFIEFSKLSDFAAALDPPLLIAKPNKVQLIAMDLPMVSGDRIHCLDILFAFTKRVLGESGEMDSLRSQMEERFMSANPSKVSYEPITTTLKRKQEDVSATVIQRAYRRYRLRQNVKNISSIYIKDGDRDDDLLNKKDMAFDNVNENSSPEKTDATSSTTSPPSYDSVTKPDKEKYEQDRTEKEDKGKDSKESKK

Legend:
[1] = tested on: capsaicin-induced action potential firing in rat DRG neurons; test: Multi-electrode array (MEA), capsaicin-induced action potential firing in rat DRG neurons; format: cell-based; conditions: cultured rat DRG neurons, 25 nM capsaicin (EC80) co-applied, 37°C, six replicate wells, read-out: IC50 for block of capsaicin-induced action potential firing
Procedure: Action potentials of cultured postnatal day 2 rat DRG neurons (Lonza, Walkersville, MD) were detected using the Maestro multi-well plate-based MEA system (Axion Biosystems, Atlanta, GA). A 48-well MEA plate containing 16 electrodes/well was pre-coated with 10μL 0.1% PEI (Sigma-Aldrich, St. Louis, MO) in borate buffer (50mM boric acid (Fisher Scientific, Waltham, MA), 12mM sodium tetraborate (Sigma-Aldrich), pH 8.4). The plate was incubated at 37°C for 2h, washed 3-times with 200μL sterile ddH2O and then air dried. Next, 10μL of 20μg/mL laminin (Sigma) in Primary Neural Basal Medium (PNBM) (Lonza) was spotted over the PEI-treated electrode surface and incubated for 2h at 37°C. Laminin was removed and immediately replaced with 10μL/well of 7x10^6 cells/mL rat DRGs in PNBM. […] Baseline spontaneous firing was recorded for approximately 1 min. Twenty-five μL of PNBM, 325nM capsaicin (MP Biomedicals, 25nM final, EC80) in PNBM, or 325nM capsaicin plus test compound was then added, and action potentials were continuously recorded for another 2 min with six replicate wells used per condition. MEA data were analyzed using Axion Integrated Studio AxIS2.1 (Axion Biosystems) and GraphPad Prism version 7.02 for Windows (GraphPad Software, La Jolla, CA). […]

[2] = tested on: mechanically-induced C-fiber action potential firing; conditions: 16 μM (highest concentration tested); 150 mN mechanical stimulus; mouse skin-saphenous nerve
Procedure: Male C57BL/6 mice (Charles River Laboratories, San Diego, CA) between 2–3 months old (136 total mice used in study) were housed under standard temperature conditions (22–24°C) and illumination (12-hour light/dark cycle with lights on at 6:30 AM) with ad libitum access to fresh water and food. Mice were euthanized by CO2 followed by cervical dislocation. Experimental procedures for mouse skin-saphenous nerve studies were conducted as previously described with the use of 0.1% BSA (Acros) in the bath solution to decrease non-specific loss of peptide to chamber components [32]. Briefly, the saphenous nerve and skin from the left medial dorsum of the hind paw were dissected and mounted in a custom-made organ bath chamber. The proximal saphenous nerve end was passed through a hole into a separate recording chamber, desheathed and teased into fine fibers for extracellular recording. Mechanical responses were evoked by square force waves using a mechanical stimulator before and following peptide application to a small area of the corium (dermis) side of the skin in a custom-made stainless steel ring. Recording and analysis of C-fiber-mediated action potentials were performed in a blinded manner with respect to peptide treatment. […]

human NaV1.7 = human NaV1.7 (Homo sapiens, UniProt Q15858); test: Block of sodium currents, human NaV1.7 in heterologous HEK293 cells (platform not stated); format: cell-based; conditions: highest concentration tested 1 μM
mouse NaV1.7 = test: Block of sodium currents, mouse NaV1.7 in heterologous HEK293 cells (platform not stated); format: cell-based; conditions: highest concentration tested 1 μM

C#CC[C@H](N)C(=O)N[C@@H](Cc1ccc(O)cc1)C(=O)N[C@H]1CSSC[C@@H]2NC(=O)[C@@H]3CSSC[C@@H](C(=O)N[C@@H](CCCNC(=N)N)C(=O)N[C@@H](CCCCN)C(=O)N[C@@H](CCC(=O)O)C(=O)N[C@H](C(N)=O)[C@@H](C)CC)NC(=O)[C@H](Cc4c[nH]c5ccccc45)NC(=O)[C@H](CC(C)C)NC(=O)[C@H](CCCCN)NC(=O)[C@H](CSSC[C@H](NC(=O)[C@H]([C@@H](C)O)NC(=O)[C@H](Cc4c[nH]c5ccccc45)NC(=O)[C@H](CCCC)NC(=O)[C@H](Cc4c[nH]c5ccccc45)NC(=O)[C@H](CCCCN)NC(=O)[C@H](CCC(N)=O)NC1=O)C(=O)N[C@@H](CC(=O)O)C(=O)N[C@@H](CO)C(=O)N[C@@H](CCCCN)C(=O)N[C@@H](CCCNC(=N)N)C(=O)N[C@@H](C)C(=O)N3)NC(=O)[C@H](CCCNC(=N)N)NC(=O)[C@H](CCC(=O)O)NC(=O)CNC(=O)[C@H](CCC(=O)O)NC2=O [AM-8394, Pra-[Nle6;Glu19,28]JzTx-V(1–29)]
IC50 [1]: > 1000 nM
effect on mechanically-induced C-fiber spiking at 16 μM [2]: no effect on spiking
block of sodium currents, human NaV1.7 (human NaV1.7): did not potently block sodium currents
block of sodium currents, mouse NaV1.7 (mouse NaV1.7): did not potently block sodium currents
